Our source for the IC50 values is paper PMC10141580, “Cyclic Dichalcogenides Extend the Reach of Bioreductive Prodrugs to Harness Thiol/Disulfide Oxidoreductases: Applications to seco-Duocarmycins Targeting the Thioredoxin System” (ACS Central Science, 2023).

The assay deals with panel of 140 standard cancer cell lines. Put plainly: ProliFiler-140 cancer cell line screen (CellTiterGlo, 72 h). The format is cell-based. On the procedure:
Incubations were performed for 72 h before automated viability readout with CellTiterGlo (Figure 8).
End of Figure S11 (part 5 of 5): ProliFiler-140 cancer cell line screening for cytotoxicity of the prodrugs.
8-data-point dose response curves from CellTiter-Glo® viability readout.
ProliFiler-140 cell line panel part V

Where two headings read alike, the source gives them in different places.

Usually IC50 stands for the point on the concentration scale where inhibition reaches its midpoint. With `COc1cccc2c1C(=O)c1c(O)c3c(c(O)c1C2=O)C[C@@](O)(C(=O)CO)C[C@@H]3O[C@H]1C[C@H](N)[C@H](O)[C@H](C)O1` [doxorubicin, reference compound], the IC50 reads like this: (BEN (Lung), read-out: IC50 [M] (ProliFiler-140)) 4.1e-06 M; (Homo sapiens, COLO 205, Colo 205 (Colon), read-out: IC50 [M] (ProliFiler-140)) 1.5e-07 M; (Homo sapiens, COLO 205, Colo 205, read-out: IC50) 1.5e-07 M; (Homo sapiens, MCF7, MCF-7 (Breast), read-out: IC50 [M] (ProliFiler-140)) 2.3e-07 M; (Homo sapiens, MCF7, MCF-7, read-out: IC50) 2.3e-07 M; (Homo sapiens, MDA-MB-231, MDA MB 231 (Breast), read-out: IC50 [M] (ProliFiler-140)) 2.83e-07 M. Besides, for the setting “MDA MB 231 (Breast), listed as Dox, read-out: IC50 [M] (ProliFiler-140)”, the IC50 was found to be 2.8e-07 M.
